{"source": "patent US7795495B2", "about": "“Transgenic mice for screening for inhibitors of protein aggregation and methods for making and using them” (The Regents of the University of California, priority 2000, dated 2010)", "key": {"[1]": {"target": "α-synuclein (Homo sapiens, UniProt P37840)", "experiment": "α-synuclein aggregation under high temperature conditions, immunoblotting analysis", "type": "biochemical", "conditions": "pH 6.9, 65 °C, 20 hours", "protocol": "Briefly, 10 µM α-synuclein was incubated either alone, or in the presence of either 10 µM β-synuclein or 10 µM IgG under pH 6.9 buffer conditions at 65° C. for 0, 6, 12, and 20 hours. In a simultaneous experiment, 10 µM α-synuclein was incubated with various concentrations (0, 2.5, 10, 40, and 160 µM) of β-synuclein under the same pH and temperature conditions for 20 hours. Quantification of immunoblotting analysis showing the ratio of aggregates versus monomer can be seen in FIG. 4.\nBecause synuclein forms both homo- and hetero-dimers, it is likely that binding might occur in the vicinity of the N-terminus. To characterize the functional domain of β-synuclein responsible for suppression of α-synuclein aggregation, peptides corresponding to amino acids 1-15 (Seq ID #7), 16-27 (Seq ID #8), 28-38 (Seq ID #9), 39-50 (Seq ID #10), and 51-61 (Seq ID #11) of the N-terminal region of β-synuclein were synthesized. Varying concentration of the peptides (1, 10, and 100 µM) were co-incubated with 10 µM α-synuclein under high temperature conditions for 20 hours."}, "[2]": {"target": "T1, NAC (Homo sapiens, UniProt P37840)", "T1 construct": "35 amino acid amyloidogenic molecule non-amyloid component (NAC)", "experiment": "Co-incubation of NAC with β-synuclein under high temperature conditions (NAC aggregation)", "type": "biochemical", "conditions": "10 µM NAC with 0, 1, 10 µM β-synuclein, 20 hours, data not shown", "protocol": "Applicants confirmed this through the generation of mutants of β-synuclein having added segments of the NAC domain. The two mutants of β-synuclein were created by PCR-based site-directed mutagenesis (FIG. 1), inserting amino acids 72-83 (designated δ1)(Seq ID #1) and 63-72 (designated δ2)(Seq ID #2) of NAC and NAC N-terminal, respectively, into β-synuclein. The proteins, β-synuclein, β-synuclein δ1, β-synuclein δ2, and α-synuclein, were incubated under high temperature conditions (65° C.), according to the previously established protocol of Hashimoto et al. (Brain Res. 799:301-306, 1998), which is herein incorporated by reference, showing that the aggregation of α-synuclein is inducible under high temperature conditions. Each of the protein samples (20 µM) was incubated under pH 6.9, 65° C. conditions for 0, 8, and 20 hours. The incubated samples were run over SDS-PAGE and the resulting protein bands visualized by Coomassie/brilliant blue staining (FIG. 2).\nAs established in Example 1, the NAC domain of α-synuclein forms β-pleated protein structures and is present in the senile plaques of Alzheimer's disease where it may be involved in Alzheimer's disease amyloidogenesis. It can therefore be postulated that the inhibition of the aggregation of NAC might block the initial step in amyloid formation. […]"}}, "data": [{"substance": "β-synuclein", "values": [{"measurement": "inhibition of α-synuclein aggregation (ratio of aggregates versus monomer)", "setting": "[1]; 10 µM α-synuclein with 0, 2.5, 10, 40, 160 µM β-synuclein", "value": "inhibits α-synuclein aggregation in a dose dependent manner"}, {"measurement": "concentrations of β-synuclein shown to be effective against α-synuclein aggregation", "setting": "[1]; relative to 10 µM α-synuclein", "value": "more than equi-molar concentrations"}, {"measurement": "inhibition of the aggregation of NAC", "setting": "[2]", "value": "inhibits the aggregation of NAC in a concentration-dependent manner"}]}]}
